# Measured affinities in a library of Ab-14 light chain variants

Source: Li et al. 2023 (doi:10.1038/s41467-023-39022-2), MIT Lincoln Laboratory and A-Alpha Bio; data file from the FLAb repository.

All variants were tested on one target, the spike HR2 peptide PDVDLGDISGINAS (SARS-CoV-2).

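Phage display of a naive human antibody library on the peptide gave the parent. These sequences belong to a second round, designed from the earlier measurements on random variants of the parent. Their group label is 14L_En_Gen (En: ensemble of fine-tuned language models; Gen: genetic algorithm). The scFvs were displayed on barcoded MATa yeast, the peptide on MATalpha yeast. The frequency of each diploid, read from paired DNA barcodes, reflects how well the two displayed proteins bind. Read counts were normalised to the haploid input and turned into Kd by a linear fit to BCL2-family pairs of known affinity, for each replicate. The assay was run in six technical replicates.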

Ab-14 is the parent antibody, in scFv form: VH, then three GGGGS repeats, then VL. The heavy chain is unchanged in all variants.
VH: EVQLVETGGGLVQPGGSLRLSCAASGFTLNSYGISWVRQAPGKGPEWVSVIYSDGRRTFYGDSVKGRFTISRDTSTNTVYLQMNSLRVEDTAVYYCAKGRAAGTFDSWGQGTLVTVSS
VL: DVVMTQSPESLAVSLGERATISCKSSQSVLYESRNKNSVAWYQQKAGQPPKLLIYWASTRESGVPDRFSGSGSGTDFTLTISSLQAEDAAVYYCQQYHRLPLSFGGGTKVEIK

Each variant is given by its three light chain CDRs, as the data file delimits them; those of the parent are KSSQSVLYESRNKNSVA, WASTRES, QQYHRLPLS. Scale: log10 of Kd in nM, estimated from mating counts; low values are strong binders. An entry "n.d." has no value in the source: the pair was not observed among the diploids in that replicate. This suggests poor binding but is not conclusive. Values of this round are not directly comparable with the first-round values of the same sequences. The authors averaged sequences with at least three values out of six and counted those with two or fewer as poor binders. The parent sequence was in this pool as ten entries: three were never detected, three once, and four in most replicates, with averages from 0.34 to 2.37. Empty control strains, which show no peptide, gave a signal in 4% of pairings with all light chain designs; the median was 2.64 and 95% of these signals were weaker than 1.59. No background was subtracted. Also given: how often the same scFv was detected with the empty control strains, with their mean in brackets.

| CDR-L1 | CDR-L2 | CDR-L3 | replicates, log10 nM | control signals |
|---|---|---|---|---|
| KLSMVTGHSSVSKNNVA | EMETREE | QQYDRLPLS | 0.14 1.13 0.12 0.61 0.45 0.52 | 0/18 |
| TISGVMQNMSHSKNNVA | EVSMRFD | QQYFRLPLE | 1.71 1.30 1.72 1.13 1.84 1.49 | 0/18 |
| TITQMTSLFSQSINNVA | EVSTREP | QQYDRLPLS | 1.01 1.22 1.12 1.45 0.99 0.91 | 1/18 (3.03) |
| KISMLMENSHVNRNSVA | ELVTRMK | QQYNRLPLS | 0.51 0.81 0.55 0.28 0.75 0.58 | 2/18 (2.59) |
| KIGMTLNTLMHQKNNVA | DLVTREN | QQYFRLPLS | 1.00 0.29 0.37 0.56 0.28 0.94 | 0/18 |
| MVYESMDQALRTHNSIA | DNQTRES | QQYDRLPLS | 1.87 1.70 1.39 1.94 1.64 1.66 | 0/18 |
| KIGATLNLLYEKKNNVA | DLVEREN | QQYHRLPLS | 0.07 0.04 0.31 0.13 -0.01 0.18 | 1/18 (1.22) |
| MISMLMNMGQFAINSVA | QASIRNS | QQYDRLPLM | n.d. 2.36 n.d. 0.53 1.85 1.64 | 0/18 |
| IVSQLMLWGMHARNSIA | EAETRIN | QQYERLPLF | n.d. n.d. n.d. n.d. n.d. n.d. | 0/18 |
| TLTGAMQTQMHNKNSVA | DLTTRNN | QQYHRLPLS | 0.53 0.10 0.03 0.07 0.20 0.23 | 3/18 (3.92) |
| KLSGLMASSKFAKNNVA | ENNTREY | QQYDRLPLS | 2.35 2.20 n.d. 3.61 n.d. n.d. | 1/18 (3.29) |
| MISQVMNTLTRHGNNVA | DLSERED | QQYFRLPLS | 1.27 0.69 1.25 1.69 1.49 1.43 | 1/18 (1.65) |
| TLSQMSGVEAVKHNNVA | ENSTREQ | QQYDRLPLA | n.d. n.d. 2.44 n.d. n.d. n.d. | 0/18 |
| MISQIYNMGQFAINSVA | QASIRNS | QQYDRLPLI | n.d. n.d. n.d. n.d. n.d. n.d. | 0/18 |
| MISQLYNMGQFAINSVA | QATLRNE | QQYDRLPLI | 0.89 1.57 1.51 1.22 0.92 1.10 | 0/18 |
| HMSMLTLQGLRHRNSVA | QMTTRVN | QQYDRLPLT | n.d. n.d. n.d. n.d. n.d. n.d. | 0/18 |
| KIGMTLNQLMHKKNNVA | DLVMREQ | QQYARLPLS | 1.06 0.83 0.57 0.63 0.17 1.01 | 0/18 |
| MISQLYNMGSFAINSVA | QASQRCE | QQYDRLPLL | 1.70 2.24 1.15 1.64 2.02 2.14 | 0/18 |
| QLTMITGHVSMSKNNVA | EMETREE | QQYDRLPLS | 0.74 0.85 0.49 0.45 0.66 0.50 | 0/18 |
| HITYGMMVAGRHSKSIA | QAETRAK | QQYDRLPLA | 1.34 1.33 1.42 1.40 1.20 1.22 | 2/18 (2.49) |
| TISQLTSMFSQNINNVA | EVSTREK | QQYDRLPLA | 0.31 0.26 0.05 0.01 0.35 0.69 | 1/18 (3.11) |
| KIGMTLNQLLEKKNNVA | DLVLREN | QQYHRLPLS | 0.33 0.38 0.65 0.56 0.35 0.48 | 0/18 |
| KIGMTLNMMMHKKNNVA | DLVMREQ | QQYHRLPLS | 0.26 0.18 0.20 0.07 0.03 0.00 | 0/18 |
| KISMLSENQLKNKNSVA | ELVTRLN | QQYNRLPLS | 0.99 0.70 0.96 0.13 1.24 1.12 | 0/18 |
| KLSMTTEMELKNRNSVA | ELVTRMS | QQYNRLPLS | 0.95 0.33 0.45 1.04 -0.04 0.76 | 0/18 |
| KLRSVTGTEKVRGNNVA | EMETRER | QQYNRLPLS | 0.19 0.26 0.10 0.03 0.25 0.18 | 1/18 (3.70) |
| MVTQMAMTGMKNKRSVA | NAETRED | QQYHRLPLI | n.d. 1.86 1.38 0.66 0.86 1.70 | 1/18 (1.21) |
| IVSQLMLWGMHQKNSIA | EAQTRLN | QQYERLPLF | n.d. n.d. n.d. n.d. n.d. n.d. | 0/18 |
| HITYGMQVMGRHSKSIA | QAEERAR | QQYDRLPLI | 0.84 0.67 0.65 0.90 0.86 0.78 | 3/18 (2.87) |
| MVSQIMLWGLHAKNSIA | EAQTRLN | QQYDRLPLF | 1.16 n.d. 1.01 n.d. 3.62 n.d. | 0/18 |
| KISQMTRVGSTHSNSIA | EEVTRAK | QQYHRLPLS | 0.86 0.78 0.69 0.51 0.72 1.06 | 1/18 (2.07) |
| KLTGIMRLESKNKSNIA | EVNERSE | QQYDRLPLS | 0.61 0.88 0.72 0.85 0.60 0.61 | 5/18 (2.55) |
| KLSNVTGHMSVSKNNVA | EMETRVN | QQYDRLPLS | 0.87 1.27 0.86 0.73 0.73 0.32 | 0/18 |
| KLSYITGTEKVHGNNVA | EMETRER | QQYNRLPLA | 1.54 2.02 1.64 0.96 1.04 1.91 | 0/18 |
| MLSEVLHMLGVAKNSIA | DLVLRAN | QQYMRLPLM | n.d. n.d. n.d. n.d. n.d. n.d. | 0/18 |
| KLTATMRFEQKISNNIA | EVTTRSK | QQYYRLPLS | 0.75 0.22 0.98 0.34 0.21 0.50 | 1/18 (2.91) |
| MIYGAQRELGLMANSIA | DNVTRYN | QQYNRLPLS | n.d. 2.88 1.30 n.d. 4.68 n.d. | 1/18 (2.35) |
| MISQLFNMGQFAINSVA | QASQRNA | QQYDRLPLI | 2.32 2.36 2.77 2.71 2.84 2.10 | 0/18 |
| MVYQAVMMGTSTRNSIA | NAEMRPD | QQYHRLPLE | 1.73 1.03 1.31 1.02 1.69 1.36 | 0/18 |
| KISQMVRVGSTVSNSIA | EMVTRCN | QQYHRLPLA | n.d. n.d. n.d. n.d. n.d. n.d. | 0/18 |
| MISQVMNTLTRQGNNVA | DLQERED | QQYFRLPLS | 1.27 1.21 0.52 1.18 1.19 1.12 | 0/18 |
| KLVNFMNRGTHHTSNIA | DAALRED | QQYYRLPLA | 0.54 0.79 0.03 -0.51 0.50 0.76 | 0/18 |
| TISQHTSLFSQTINNVA | EVSTREQ | QQYDRLPLI | 1.70 1.66 2.32 1.53 1.46 1.84 | 1/18 (2.93) |
| MVNGITDHMSKQTNNVA | ETQTREE | QQYDRLPLS | -0.12 0.22 -0.05 0.40 0.30 0.32 | 1/18 (2.52) |
| KISQMVRVGLTHNNSIA | EEATRAK | QQYHRLPLS | 1.43 2.18 1.35 1.41 1.41 2.04 | 4/18 (3.10) |
| TLYGLSNSMSINKNSVA | EMTTREK | QQYDRLPLF | 0.21 0.04 -0.12 -0.27 -0.08 0.04 | 2/18 (3.15) |

Repeated from above, the 5 best binders with a signal in all replicates:

CDR-L1,CDR-L2,CDR-L3,"replicates, log10 nM",control signals
TLYGLSNSMSINKNSVA,EMTTREK,QQYDRLPLF,0.21 0.04 -0.12 -0.27 -0.08 0.04,2/18 (3.15)
KIGATLNLLYEKKNNVA,DLVEREN,QQYHRLPLS,0.07 0.04 0.31 0.13 -0.01 0.18,1/18 (1.22)
KIGMTLNMMMHKKNNVA,DLVMREQ,QQYHRLPLS,0.26 0.18 0.20 0.07 0.03 0.00,0/18
KLRSVTGTEKVRGNNVA,EMETRER,QQYNRLPLS,0.19 0.26 0.10 0.03 0.25 0.18,1/18 (3.70)
MVNGITDHMSKQTNNVA,ETQTREE,QQYDRLPLS,-0.12 0.22 -0.05 0.40 0.30 0.32,1/18 (2.52)